This assay has as its target Vascular endothelial growth factor receptor (Homo sapiens, UniProt P17948+P35916+P35968). Conditions: endothelial cell.

Chains of the proteins cited; added tags and fusions are not shown. Lines headed by an entry give the natural chain unless they say otherwise; changes in a name come on top.
UniProt P17948: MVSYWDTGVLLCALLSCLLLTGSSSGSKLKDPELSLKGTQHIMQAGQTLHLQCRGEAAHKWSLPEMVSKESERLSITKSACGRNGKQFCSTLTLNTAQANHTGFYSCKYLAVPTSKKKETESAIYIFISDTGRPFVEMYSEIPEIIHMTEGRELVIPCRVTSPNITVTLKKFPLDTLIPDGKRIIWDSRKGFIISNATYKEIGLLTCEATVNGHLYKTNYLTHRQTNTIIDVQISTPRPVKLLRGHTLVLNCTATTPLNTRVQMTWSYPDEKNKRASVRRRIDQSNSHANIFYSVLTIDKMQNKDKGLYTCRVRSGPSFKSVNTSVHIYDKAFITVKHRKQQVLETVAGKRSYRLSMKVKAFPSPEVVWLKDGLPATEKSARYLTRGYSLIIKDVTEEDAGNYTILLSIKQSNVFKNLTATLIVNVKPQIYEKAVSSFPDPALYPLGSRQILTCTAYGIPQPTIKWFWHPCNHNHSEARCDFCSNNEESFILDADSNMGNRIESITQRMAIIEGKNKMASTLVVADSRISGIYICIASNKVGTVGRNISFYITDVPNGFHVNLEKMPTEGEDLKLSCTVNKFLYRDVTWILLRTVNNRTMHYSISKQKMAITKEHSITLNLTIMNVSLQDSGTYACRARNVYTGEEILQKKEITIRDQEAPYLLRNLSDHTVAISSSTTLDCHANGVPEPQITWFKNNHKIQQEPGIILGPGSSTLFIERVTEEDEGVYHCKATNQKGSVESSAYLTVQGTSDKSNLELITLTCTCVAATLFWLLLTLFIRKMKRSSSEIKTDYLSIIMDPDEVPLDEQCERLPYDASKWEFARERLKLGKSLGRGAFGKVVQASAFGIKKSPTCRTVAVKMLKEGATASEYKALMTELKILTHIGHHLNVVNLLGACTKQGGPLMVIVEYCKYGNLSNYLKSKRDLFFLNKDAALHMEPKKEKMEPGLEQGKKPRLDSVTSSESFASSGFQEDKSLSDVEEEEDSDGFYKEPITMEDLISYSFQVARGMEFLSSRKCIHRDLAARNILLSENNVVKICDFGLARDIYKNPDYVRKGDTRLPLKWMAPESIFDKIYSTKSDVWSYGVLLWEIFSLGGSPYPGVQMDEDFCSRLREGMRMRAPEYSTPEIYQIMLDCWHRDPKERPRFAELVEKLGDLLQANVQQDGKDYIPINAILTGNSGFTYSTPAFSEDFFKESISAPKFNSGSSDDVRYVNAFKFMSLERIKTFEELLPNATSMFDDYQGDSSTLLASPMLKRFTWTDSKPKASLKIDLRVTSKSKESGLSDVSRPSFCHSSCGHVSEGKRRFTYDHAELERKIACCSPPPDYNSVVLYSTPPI
UniProt P35916: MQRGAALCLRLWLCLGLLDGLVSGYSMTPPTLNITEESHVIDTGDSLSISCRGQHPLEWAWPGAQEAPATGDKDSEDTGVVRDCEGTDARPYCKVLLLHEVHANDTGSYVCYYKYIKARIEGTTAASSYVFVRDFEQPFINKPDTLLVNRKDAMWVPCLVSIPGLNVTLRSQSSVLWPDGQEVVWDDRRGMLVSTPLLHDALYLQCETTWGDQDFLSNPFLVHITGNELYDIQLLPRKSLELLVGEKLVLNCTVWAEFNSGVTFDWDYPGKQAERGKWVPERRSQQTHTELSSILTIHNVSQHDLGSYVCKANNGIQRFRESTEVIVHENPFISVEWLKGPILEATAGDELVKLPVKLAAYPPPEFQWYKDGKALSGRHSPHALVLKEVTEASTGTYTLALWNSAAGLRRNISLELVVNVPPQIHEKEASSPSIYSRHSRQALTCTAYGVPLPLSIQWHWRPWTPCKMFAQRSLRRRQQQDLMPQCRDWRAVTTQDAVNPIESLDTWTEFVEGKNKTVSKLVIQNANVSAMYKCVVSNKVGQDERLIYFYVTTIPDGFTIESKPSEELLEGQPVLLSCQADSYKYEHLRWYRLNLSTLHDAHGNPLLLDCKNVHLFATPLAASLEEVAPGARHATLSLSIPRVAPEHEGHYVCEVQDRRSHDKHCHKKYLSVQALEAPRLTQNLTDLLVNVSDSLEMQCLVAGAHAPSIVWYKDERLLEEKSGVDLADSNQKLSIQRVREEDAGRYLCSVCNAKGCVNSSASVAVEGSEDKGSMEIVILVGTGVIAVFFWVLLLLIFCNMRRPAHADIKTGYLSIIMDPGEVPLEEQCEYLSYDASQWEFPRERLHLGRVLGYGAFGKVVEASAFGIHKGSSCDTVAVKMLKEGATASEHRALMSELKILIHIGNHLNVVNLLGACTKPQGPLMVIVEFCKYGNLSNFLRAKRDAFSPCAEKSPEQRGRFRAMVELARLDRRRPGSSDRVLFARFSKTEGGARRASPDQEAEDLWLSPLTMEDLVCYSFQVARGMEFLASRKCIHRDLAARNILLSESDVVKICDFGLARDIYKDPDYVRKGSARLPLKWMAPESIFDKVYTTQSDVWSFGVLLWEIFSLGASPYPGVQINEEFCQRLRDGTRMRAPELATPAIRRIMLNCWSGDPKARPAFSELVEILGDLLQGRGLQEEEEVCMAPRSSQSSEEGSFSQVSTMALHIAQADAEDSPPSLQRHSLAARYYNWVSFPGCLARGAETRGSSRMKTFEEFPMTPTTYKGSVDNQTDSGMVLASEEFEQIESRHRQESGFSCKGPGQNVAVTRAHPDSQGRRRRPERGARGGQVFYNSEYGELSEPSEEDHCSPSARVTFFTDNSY
UniProt P35968: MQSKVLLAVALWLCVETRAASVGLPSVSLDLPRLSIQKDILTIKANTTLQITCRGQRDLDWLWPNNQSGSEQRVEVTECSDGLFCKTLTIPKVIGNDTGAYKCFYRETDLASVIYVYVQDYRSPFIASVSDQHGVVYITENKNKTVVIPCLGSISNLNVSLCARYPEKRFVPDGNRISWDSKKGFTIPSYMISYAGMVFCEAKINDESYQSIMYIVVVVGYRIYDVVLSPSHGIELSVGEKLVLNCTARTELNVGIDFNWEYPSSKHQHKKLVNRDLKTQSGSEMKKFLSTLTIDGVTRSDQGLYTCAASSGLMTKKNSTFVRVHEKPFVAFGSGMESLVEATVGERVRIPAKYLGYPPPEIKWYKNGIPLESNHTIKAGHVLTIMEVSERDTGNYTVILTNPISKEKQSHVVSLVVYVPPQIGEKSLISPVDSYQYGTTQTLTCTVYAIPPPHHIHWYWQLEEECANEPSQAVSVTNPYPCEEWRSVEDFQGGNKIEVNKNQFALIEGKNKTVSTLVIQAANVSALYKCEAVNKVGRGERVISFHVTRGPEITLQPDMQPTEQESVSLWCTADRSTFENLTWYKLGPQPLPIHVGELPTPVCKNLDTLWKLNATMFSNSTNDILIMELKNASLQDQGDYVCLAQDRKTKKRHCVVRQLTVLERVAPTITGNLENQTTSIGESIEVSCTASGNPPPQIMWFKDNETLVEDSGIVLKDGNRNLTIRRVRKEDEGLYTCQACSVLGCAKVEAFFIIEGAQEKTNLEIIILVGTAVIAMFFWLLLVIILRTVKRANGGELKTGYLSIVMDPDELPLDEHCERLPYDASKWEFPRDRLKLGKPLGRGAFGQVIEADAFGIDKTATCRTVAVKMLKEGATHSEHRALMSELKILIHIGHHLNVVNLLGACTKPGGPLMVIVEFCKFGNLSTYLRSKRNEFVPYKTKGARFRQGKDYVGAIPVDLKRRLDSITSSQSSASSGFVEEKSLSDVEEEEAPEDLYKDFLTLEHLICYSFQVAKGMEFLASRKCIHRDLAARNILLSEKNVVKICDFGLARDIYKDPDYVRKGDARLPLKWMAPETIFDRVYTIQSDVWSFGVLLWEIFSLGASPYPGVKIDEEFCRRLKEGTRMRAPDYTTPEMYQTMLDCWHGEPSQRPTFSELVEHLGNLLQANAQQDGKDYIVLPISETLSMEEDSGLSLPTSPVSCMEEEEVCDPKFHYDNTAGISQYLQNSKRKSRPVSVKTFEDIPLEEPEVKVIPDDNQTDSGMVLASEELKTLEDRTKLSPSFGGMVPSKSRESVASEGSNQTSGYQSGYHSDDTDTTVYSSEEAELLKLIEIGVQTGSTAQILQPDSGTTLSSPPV

Data on one compound can be found in ChEMBL document CHEMBL1135002, “Optimization of a pyrazolo[1,5-a]pyrimidine class of KDR kinase inhibitors: improvements in physical properties enhance cellular activity and pharmacokinetics” (Bioorg Med Chem Lett, 2002).

One may read the IC50 as the concentration needed to halve the response being measured. Read a high IC50 as a need for much substance.

In turn, `COc1ccc(-c2cnc3c(-c4ccsc4)cnn3c2)cc1` showed a 50% inhibitory concentration (IC50) of 0.387 µM.
